Data: PMC7683652 (Nature Communications, 2020)

Molecular target: T1, N-terminal biotinylated Aβ40 (UniProt P05067 672-711, biotin on the N-terminus)
T1 construct: amyloid-β of 40 amino acids (Aβ40), cleavage product of amyloid precursor protein; HFIP- and NaOH-treated before use; also called biotin-Aβ40; biotin-labeled Aβ40; source: bought: Biopeptide Inc
Assay: BLI; Octet RED96; N-terminally biotinylated Aβ40 immobilised on streptavidin sensors; TDP-43 variants in solution; 10 mM Tris pH 7.8, 0.005% Tween-20; 37 °C; association and dissociation 300 s each; double references
Details: both partners purified

B1: TDP-43 RNA recognition region (aa 101-265) (domain or fragment, UniProt Q13148 101-265, looked up)
chain: QKTSDLIVLGLPWKTTEQDLKEYFSTFGEVLMVQVKKDLKTGHSKGFGFVRFTEYETQVKVMSQRHMIDGRWCDCKLPNSKQSQDEPLRSRKVFVGRCTEDMTEDELREFFSQYGDVMDVFIPKPFRAFAFVTFADDQIAQSLCGEDLIIKGISVHISNAEPKHN
notes: calculated 20.4 kDa; also called TDP-43_RRM1 + 2; TDP-43_RRM1 + RRM2; source: E. coli M15 (pQE30), purified (Ni-NTA)
Kd: < 1 pM
koff: < 1e-07 s⁻¹
kon: 9000 M⁻¹ s⁻¹
